The source of these data is PMC5738438.

In this assay the target is Npm core+A2 truncation (1–145) (Xenopus laevis). The assay is described as follows: SEC-SAXS; complex of core+A2 and H2A/H2B purified by SEC, 4.83 mg/mL on Superdex 200 PC3.2/300, 5 mM DTT; Porod volume.

Take “H2A/H2B dimer (from UniProt P06897 2-123; P02281 1-126) (complex)”: the stoichiometry N (H2A/H2B dimers per Npm pentamer) came to 5.
